Patent US7923473B2, “Aromatic compounds and their use in medical applications” (Revotar Biopharmaceuticals AG, priority 2005, dated 2011)

Sequences of proteins named here, by UniProt entry; tags and fusion partners are left off. A change or cut given only in a name is not applied to a line headed by its entry. A line that says so, or that is headed by a name, gives the form on record, which may keep a tag or linker.
UniProt P16581, with tags, fused parts or gaps limits assumed: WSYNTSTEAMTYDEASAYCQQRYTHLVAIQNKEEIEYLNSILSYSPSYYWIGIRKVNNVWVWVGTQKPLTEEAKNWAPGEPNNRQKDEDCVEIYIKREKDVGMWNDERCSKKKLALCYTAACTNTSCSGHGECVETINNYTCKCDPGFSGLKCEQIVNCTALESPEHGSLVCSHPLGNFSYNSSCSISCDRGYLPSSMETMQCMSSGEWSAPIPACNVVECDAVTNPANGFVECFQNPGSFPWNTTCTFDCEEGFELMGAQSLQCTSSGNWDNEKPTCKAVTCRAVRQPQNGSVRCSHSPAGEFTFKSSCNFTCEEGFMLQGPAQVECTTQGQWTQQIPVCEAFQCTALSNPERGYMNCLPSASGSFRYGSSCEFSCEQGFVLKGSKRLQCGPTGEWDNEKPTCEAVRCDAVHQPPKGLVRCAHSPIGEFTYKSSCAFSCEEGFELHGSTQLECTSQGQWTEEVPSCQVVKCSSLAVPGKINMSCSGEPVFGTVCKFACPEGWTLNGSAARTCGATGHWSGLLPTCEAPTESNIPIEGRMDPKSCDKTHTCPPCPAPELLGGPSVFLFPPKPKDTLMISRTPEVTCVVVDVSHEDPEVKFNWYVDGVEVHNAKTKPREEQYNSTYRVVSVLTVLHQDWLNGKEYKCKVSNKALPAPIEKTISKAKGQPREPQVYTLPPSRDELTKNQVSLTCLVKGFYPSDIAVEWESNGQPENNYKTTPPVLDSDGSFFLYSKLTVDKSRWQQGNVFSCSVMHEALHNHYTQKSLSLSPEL

Biological target: human E-Selectin-IgG-chimera (Homo sapiens, UniProt P16581)
Experiment: Sialyl Lewis^x Tyrosine Sulfate Assay (sLe^x TSA), E-selectin
Settings: inhibition of binding of selectin chimera to sLe^x-tyrosine sulfate polyacrylamide ligand complex
Procedure: Compounds of the present invention are assayed on a molecular level for their ability to inhibit the binding of P-, L-, or E-selectin chimeric molecules to sLe^x and tyrosinesulfate residues linked to a polymeric matrix as a PSGL-1 substitute. IC50-values are determined.
Microtiter plates are coated overnight in carbonate buffer pH9.6 with goat anti human Fc mAB (10 μg/ml). After washing in assay buffer (25 mM 4-(2-hydroxyethyl)-1-piperazineethanesulfonic acid (HEPES), 150 mM NaCl, 1 mM CaCl2 pH7.4) and blocking (3% bovine serum albumin (BSA) in assay buffer) plates are incubated for 2 h at 37° C. with human P-Selectin-IgG-chimera (0.61 nM respectively 150 ng/mL) or human L-Selectin-IgG-chimera (0.61 nM respectively 89 ng/mL) or human E-Selectin-IgG-chimera (0.61 nM respectively 131 ng/mL). 5 μl of sLe^x-tyrosine sulfate polyacrylamide (1 mg/ml) carrying 15% sLe^x, 10% Tyrosine-sulfate and 5% biotin is complexed with 20 μl Streptavidin-Peroxidase solution (1 mg/ml) and 25 μl assay buffer without CaCl2. For use in the assay, the ligand complex is diluted 1:10000 in assay buffer and further diluted 1:1 with varying amounts of compounds in assay buffer incl. 2% DMSO. […] Bound sLe^x-Tyrosine sulfate ligand complex is determined by measuring optical density at 450 nm vs. 620 nm in a Fusion alpha-FP reader (sold from Packard Bioscience, Dreieich, Germany).

For O=C(O)Cc1cccc(-c2cc(CCCCCCc3ccc(O[C@H]4O[C@H](CO)[C@@H](O)[C@H](O)[C@@H]4O)c(-c4cccc(CC(=O)O)c4)c3)ccc2O[C@H]2O[C@H](CO)[C@@H](O)[C@H](O)[C@@H]2O)c1 [Bimosiamose, bimosiamose, reference compound], the IC50 was over 500 µM.
